Assay results: US10149839B2, “Chemical compounds” (AstraZeneca AB, priority 2016, dated 2018)

By UniProt entry, the sequences of proteins in these tests, tags left out. Residues count along the entry.
UniProt P03372, 307-554: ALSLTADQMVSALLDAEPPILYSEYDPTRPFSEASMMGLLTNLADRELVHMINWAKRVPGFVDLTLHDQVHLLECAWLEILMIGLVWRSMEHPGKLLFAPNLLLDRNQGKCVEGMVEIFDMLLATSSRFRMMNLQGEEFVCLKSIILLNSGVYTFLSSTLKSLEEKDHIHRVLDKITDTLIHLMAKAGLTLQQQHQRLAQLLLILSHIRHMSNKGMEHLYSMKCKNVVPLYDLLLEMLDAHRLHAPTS

Target: recombinant human Estrogen Receptor alpha ligand binding domain (ER alpha-LBD (GST)) (Homo sapiens (Human), UniProt P03372)
Experiment: ERα binding assay (LanthaScreen TR-FRET competition)
Settings: read-out: ER binding IC50 value, 50% reduction in tracer binding to ER alpha-LBD

Row | Structure (SMILES) | IC50
1 | C[C@@H]1Cc2c([nH]c3ccccc23)[C@@H](c2ccc(OCCNCCCF)cc2)N1CC(F)F [Example 56, N-(2-(4-((1R,3R)-2-(2,2-difluoroethyl)-3-methyl-2,3,4,9-tetrahydro-1H-pyrido[3,4-b]indol-1-yl)phenoxy)ethyl)-3-fluoropropan-1-amine] | 2 nM
2 | C[C@@H]1Cc2c([nH]c3ccccc23)[C@@H](c2ccc(OC[C@H](C)NCCCF)cc2)N1CC1(F)COC1 [Example 27, 3-fluoro-N-((S)-1-(4-((1R,3R)-2-((3-fluorooxetan-3-yl)methyl)-3-methyl-2,3,4,9-tetrahydro-1H-pyrido[3,4-b]indol-1-yl)phenoxy)propan-2-yl)propan-1-amine] | 2.2 nM
3 | COc1cc(NCCNCCCF)ccc1[C@@H]1c2[nH]c3ccccc3c2C[C@@H](C)N1CC1(F)COC1 [Example 47, N1-(4-((1R,3R)-2-((3-fluorooxetan-3-yl)methyl)-3-methyl-2,3,4,9-tetrahydro-1H-pyrido[3,4-b]indol-1-yl)-3-methoxyphenyl)-N2-(3-fluoropropyl)ethane-1,2-diamine] | 27 nM
4 | C[C@@H]1Cc2c([nH]c3ccccc23)[C@@H](c2cnc(OCCNCCCF)cn2)N1CC(C)(C)F [Example 38, 3-fluoro-N-(2-((5-((1S,3R)-2-(2-fluoro-2-methylpropyl)-3-methyl-2,3,4,9-tetrahydro-1H-pyrido[3,4-b]indol-1-yl)pyrazin-2-yl)oxy)ethyl)propan-1-amine] | 1.9 nM
5 | COc1cc(OCCNCCCF)ncc1[C@@H]1c2[nH]c3ccccc3c2C[C@@H](C)N1CC(C)(F)F [Example 42, N-(2-((5-((1R,3R)-2-(2,2-Difluoropropyl)-3-methyl-2,3,4,9-tetrahydro-1H-pyrido[3,4-b]indol-1-yl)-4-methoxypyridin-2-yl)oxy)ethyl)-3-fluoropropan-1-amine] | 1.2 nM
6 | COc1cc(OCCNCCCF)ncc1[C@@H]1c2[nH]c3ccccc3c2C[C@@H](C)N1CC1(F)CC1 [Example 37, 3-fluoro-N-(2-((5-((1R,3R)-2-((1-fluorocyclopropyl)methyl)-3-methyl-2,3,4,9-tetrahydro-1H-pyrido[3,4-b]indol-1-yl)-4-methoxypyridin-2-yl)oxy)ethyl)propan-1-amine] | 2.4 nM
7 | CC(C)CN1[C@H](c2ccc(OCCNCCC(F)F)cc2)c2[nH]c3ccccc3c2C[C@H]1C [Example 1, 3,3-difluoro-N-(2-(4-((1R,3R)-2-isobutyl-3-methyl-2,3,4,9-tetrahydro-1H-pyrido[3,4-b]indol-1-yl)phenoxy)ethyl)propan-1-amine] | 6.6 nM
8 | COc1cc(NCCNCCCF)ncc1[C@@H]1c2[nH]c3ccccc3c2C[C@@H](C)N1CC1(F)COC1 [Example 66, N1-(5-((1R,3R)-2-((3-fluorooxetan-3-yl)methyl)-3-methyl-2,3,4,9-tetrahydro-1H-pyrido[3,4-b]indol-1-yl)-4-methoxypyridin-2-yl)-N2-(3-fluoropropyl)ethane-1,2-diamine] | 5.3 nM
9 | C[C@@H]1Cc2c([nH]c3ccccc23)[C@@H](c2c(F)cc(OCCNCCCF)cc2F)N1CC(C)(F)CO (single isomer, unassigned) [Example 18] | 2.3 nM
10 | COc1cc(OCCNCCCF)ccc1[C@@H]1c2[nH]c3ccccc3c2C[C@@H](C)N1CC(F)(F)F [Example 73, 3-fluoro-N-(2-(3-methoxy-4-((1R,3R)-3-methyl-2-(2,2,2-trifluoroethyl)-2,3,4,9-tetrahydro-1H-pyrido[3,4-b]indol-1-yl)phenoxy)ethyl)propan-1-amine] | 2.7 nM
11 | COc1cc(OCCNCCCF)ncc1[C@@H]1c2[nH]c3ccccc3c2C[C@@H](C)N1CC1(F)COC1 [Example 7, 3-fluoro-N-(2-((5-((1R,3R)-2-((3-fluorooxetan-3-yl)methyl)-3-methyl-2,3,4,9-tetrahydro-1H-pyrido[3,4-b]indol-1-yl)-4-methoxypyridin-2-yl)oxy)ethyl)propan-1-amine] | 2.1 nM
12 | CC(CNCCCF)Oc1cc(F)c([C@@H]2c3[nH]c4ccccc4c3C[C@@H](C)N2CC(C)(C)F)c(F)c1 (stereo partly drawn) [Example 19, 2-(3,5-difluoro-4-((1R,3R)-2-(2-fluoro-2-methylpropyl)-3-methyl-2,3,4,9-tetrahydro-1H-pyrido[3,4-b]indol-1-yl)phenoxy)-N-(3-fluoropropyl)propan-1-amine] | 2.5 nM
13 | COc1nc(NCCNCCCF)ccc1[C@@H]1c2[nH]c3ccccc3c2C[C@@H](C)N1CC(F)F [Example 76, N1-(5-((1R,3R)-2-(2,2-difluoroethyl)-3-methyl-2,3,4,9-tetrahydro-1H-pyrido[3,4-b]indol-1-yl)-6-methoxypyridin-2-yl)-N2-(3-fluoropropyl)ethane-1,2-diamine] | 3 nM

Continued by falling IC50, values first:

Row | IC50 | Structure (SMILES)
14 | 14 nM | COc1cc(NCCNCCCF)ccc1[C@@H]1c2[nH]c3ccccc3c2C[C@@H](C)N1CC1(F)CC1 [Example 60, N1-(4-((1R,3R)-2-((1-fluorocyclopropyl)methyl)-3-methyl-2,3,4,9-tetrahydro-1H-pyrido[3,4-b]indol-1-yl)-3-methoxyphenyl)-N2-(3-fluoropropyl)ethane-1,2-diamine]
15 | 6.2 nM | C[C@H](COc1ccc([C@@H]2c3[nH]c4ccccc4c3C[C@@H](C)N2CC2(F)COC2)cc1)NCCCF [Example 28, 3-fluoro-N-((R)-1-(4-((1R,3R)-2-((3-fluorooxetan-3-yl)methyl)-3-methyl-2,3,4,9-tetrahydro-1H-pyrido[3,4-b]indol-1-yl)phenoxy)propan-2-yl)propan-1-amine]
16 | 4.8 nM | C[C@@H]1Cc2c([nH]c3ccccc23)[C@@H](c2ccc(OCCNCCCF)cc2F)N1CC1(F)CC1 [Example 21, 3-fluoro-N-(2-(3-fluoro-4-((1R,3R)-2-((1-fluorocyclopropyl)methyl)-3-methyl-2,3,4,9-tetrahydro-1H-pyrido[3,4-b]indol-1-yl)phenoxy)ethyl)propan-1-amine]
17 | 3.3 nM | C[C@@H]1Cc2c([nH]c3ccccc23)[C@@H](c2ccc(OCCNCCCF)cc2)N1CC(C)(F)F [Example 57, N-(2-(4-((1R,3R)-2-(2,2-difluoropropyl)-3-methyl-2,3,4,9-tetrahydro-1H-pyrido[3,4-b]indol-1-yl)phenoxy)ethyl)-3-fluoropropan-1-amine]
18 | 2.5 nM | C[C@@H]1Cc2c([nH]c3ccccc23)[C@@H](c2ccc(OCCNCCCF)nc2)N1CC1(F)CC1 [Example 33, 3-fluoro-N-(2-((5-((1R,3R)-2-((1-fluorocyclopropyl)methyl)-3-methyl-2,3,4,9-tetrahydro-1H-pyrido[3,4-b]indol-1-yl)pyridin-2-yl)oxy)ethyl)propan-1-amine]
19 | 2.5 nM | C[C@@H]1Cc2c([nH]c3ccccc23)[C@@H](c2c(F)cc(NCCNCCCF)cc2F)N1CC1(F)COC1 [Example 44, N1-(3,5-difluoro-4-((1R,3R)-2-((3-fluorooxetan-3-yl)methyl)-3-methyl-2,3,4,9-tetrahydro-1H-pyrido[3,4-b]indol-1-yl)phenyl)-N2-(3-fluoropropyl)ethane-1,2-diamine]
20 | 2.1 nM | COc1nc(OCCNCCCF)ccc1[C@@H]1c2[nH]c3ccccc3c2C[C@@H](C)N1CC(C)(F)F [Example 77, N-(2-((5-((1R,3R)-2-(2,2-difluoropropyl)-3-methyl-2,3,4,9-tetrahydro-1H-pyrido[3,4-b]indol-1-yl)-6-methoxypyridin-2-yl)oxy)ethyl)-3-fluoropropan-1-amine]
21 | 1.8 nM | C[C@@H]1Cc2c([nH]c3ccccc23)[C@@H](c2c(F)cc(OCC(CO)NCCCF)cc2F)N1CC(C)(C)F (stereo partly drawn) [Example 20, 3-(3,5-difluoro-4-((1R,3R)-2-(2-fluoro-2-methylpropyl)-3-methyl-2,3,4,9-tetrahydro-1H-pyrido[3,4-b]indol-1-yl)phenoxy)-2-((3-fluoropropyl)amino)propan-1-ol]
22 | 1.7 nM | COc1cc(OCCNCCCF)ncc1[C@@H]1c2[nH]c3ccccc3c2C[C@@H](C)N1CC(F)F [Example 40, N-(2-((5-((1R,3R)-2-(2,2-difluoroethyl)-3-methyl-2,3,4,9-tetrahydro-1H-pyrido[3,4-b]indol-1-yl)-4-methoxypyridin-2-yl)oxy)ethyl)-3-fluoropropan-1-amine]
23 | 1.6 nM | C[C@@H]1Cc2c([nH]c3ccccc23)[C@@H](c2ccc(OCCNCCCF)cc2F)N1CC(C)(F)F [Example 55, N-(2-(4-((1R,3R)-2-(2,2-difluoropropyl)-3-methyl-2,3,4,9-tetrahydro-1H-pyrido[3,4-b]indol-1-yl)-3-fluorophenoxy)ethyl)-3-fluoropropan-1-amine]
24 | 1.3 nM | C[C@@H]1Cc2c([nH]c3ccccc23)[C@@H](c2ccc(OCCNCCCF)cn2)N1CC(C)(C)F [Example 30, 3-fluoro-N-(2-((6-((1S,3R)-2-(2-fluoro-2-methylpropyl)-3-methyl-2,3,4,9-tetrahydro-1H-pyrido[3,4-b]indol-1-yl)pyridin-3-yl)oxy)ethyl)propan-1-amine]
25 | 1.2 nM | C[C@@H]1Cc2c([nH]c3ccccc23)[C@@H](c2cnc(OCCNCCCF)cn2)N1CC(F)F [Example 70, N-(2-((5-((1S,3R)-2-(2,2-difluoroethyl)-3-methyl-2,3,4,9-tetrahydro-1H-pyrido[3,4-b]indol-1-yl)pyrazin-2-yl)oxy)ethyl)-3-fluoropropan-1-amine]
26 | 1.2 nM | C[C@@H]1Cc2c([nH]c3ccccc23)[C@@H](c2c(F)cc(NCCNCCCF)cc2F)N1CC(F)(F)CO [Example 46, 3-((1R,3R)-1-(2,6-difluoro-4-((2-((3-fluoropropyl)amino)ethyl)amino)phenyl)-3-methyl-1,3,4,9-tetrahydro-2H-pyrido[3,4-b]indol-2-yl)-2,2-difluoropropan-1-ol]
27 | 1.1 nM | C[C@@H]1Cc2c([nH]c3ccccc23)[C@@H](c2c(F)cc(OCCNCCC(F)F)cc2F)N1CC(C)(C)F [Example 3, N-(2-(3,5-difluoro-4-((1R,3R)-2-(2-fluoro-2-methylpropyl)-3-methyl-2,3,4,9-tetrahydro-1H-pyrido[3,4-b]indol-1-yl)phenoxy)ethyl)-3,3-difluoropropan-1-amine]
28 | 0.97 nM | C[C@@H]1Cc2c([nH]c3ccccc23)[C@@H](c2cnc(OCCNCCCF)cn2)N1CC(F)(F)CO [Example 69, 2,2-difluoro-3-((1S,3R)-1-(5-(2-((3-fluoropropyl)amino)ethoxy)pyrazin-2-yl)-3-methyl-1,3,4,9-tetrahydro-2H-pyrido[3,4-b]indol-2-yl)propan-1-ol]
